The values below are quoted from earlier work in patent publication US8969413B2.

In this data set the target is T1, mGAT4 (Mus musculus, UniProt P31650).
T1 sequence (P31650 1-627): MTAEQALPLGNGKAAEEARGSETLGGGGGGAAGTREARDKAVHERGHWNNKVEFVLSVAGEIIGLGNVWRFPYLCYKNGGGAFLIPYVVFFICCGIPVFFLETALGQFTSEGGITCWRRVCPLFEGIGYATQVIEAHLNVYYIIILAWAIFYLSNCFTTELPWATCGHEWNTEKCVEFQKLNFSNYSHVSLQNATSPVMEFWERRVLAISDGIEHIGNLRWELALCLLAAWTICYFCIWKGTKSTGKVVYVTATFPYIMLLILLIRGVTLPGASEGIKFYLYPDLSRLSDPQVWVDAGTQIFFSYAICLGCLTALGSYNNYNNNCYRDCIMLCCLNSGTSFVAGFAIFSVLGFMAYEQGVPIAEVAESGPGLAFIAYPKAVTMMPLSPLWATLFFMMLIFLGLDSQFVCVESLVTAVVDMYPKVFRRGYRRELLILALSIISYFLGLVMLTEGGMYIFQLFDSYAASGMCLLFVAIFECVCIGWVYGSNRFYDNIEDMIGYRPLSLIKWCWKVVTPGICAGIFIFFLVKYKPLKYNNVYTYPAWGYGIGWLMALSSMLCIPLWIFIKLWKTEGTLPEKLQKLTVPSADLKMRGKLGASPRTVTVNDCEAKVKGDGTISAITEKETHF
The arrangement: expressed in transfected cells. The settings on record: data from Bolvig et al. 1999; read-out: mGAT4 uptake IC50; cited from earlier work.

One may read the IC50 as the midpoint of a concentration-inhibition curve. Take `NCCCC(=O)O` [GABA, γ-aminobutyric acid]: the IC50 was 17 µM.
